The values that follow come from publication PMC11417407 (2024).

The assay has as its target GST-PHAX (Homo sapiens (Human), UniProt Q9H814). Put plainly: GST pull-down with western blot; HeLa nuclear extract with ATP present.

B1: FLAG-DBP5 (protein)
chain: MATDSWALAVDEQEAAAESLSNLHLKEEKIKPDTNGAVVKTNANAEKTDEEEKEDRAAQSLLNKLIRSNLVDNTNQVEVLQRDPNSPLYSVKSFEELRLKPQLLQGVYAMGFNRPSKIQENALPLMLAEPPQNLIAQSQSGTGKTAAFVLAMLSQVEPANKYPQCLCLSPTYELALQTGKVIEQMGKFYPELKLAYAVRGNKLERGQKISEQIVIGTPGTVLDWCSKLKFIDPKKIKVFVLDEADVMIATQGHQDQSIRIQRMLPRNCQMLLFSATFEDSVWKFAQKVVPDPNVIKLKREEETLDTIKQYYVLCSSRDEKFQALCNLYGAITIAQAMIFCHTRKTASWLAAELSKEGHQVALLSGEMMVEQRAAVIERFREGKEKVLVTTNVCARGIDVEQVSVVINFDLPVDKDGNPDNETYLHRIGRTGRFGKRGLAVNMVDSKHSMNILNRIQEHFNKKIERLDTDDLDEIEKIAN
Turning to B1, the binding result is on record as “no binding”.
